Measurements: paper PMC4794675, “Generation and Characterization of Monoclonal Antibodies against a Cyclic Variant of Hepatitis C Virus E2 Epitope 412-422” (Journal of Virology, 2016)

Chains of the proteins cited; added tags and fusions are not shown. A line that says so, or that is headed by a name, gives the form on record, which may keep a tag or linker.
MAb AP33 (broadly neutralizing mouse monoclonal antibody) (mouse), light, as listed by the source, chain 2 of 2: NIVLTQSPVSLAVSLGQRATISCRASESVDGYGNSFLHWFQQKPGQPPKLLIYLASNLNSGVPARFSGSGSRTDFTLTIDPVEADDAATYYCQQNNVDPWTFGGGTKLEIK

Biological target: MAb AP33 (broadly neutralizing mouse monoclonal antibody) (mouse)
Assay: SPR

In the case of “C-epitope I (cyclic peptide containing HCV E2 residues 412 to 422)”, the Kd is reported as 71.1 nM.
Work on “L-epitope I (linear variant of C-epitope I, cysteines methylated) (peptide)” yielded a Kd of 0.535 nM.
